System: IRS1 and IRS2
Assay: IRS1/IRS2 Ser-phosphorylation and degradation, Western blot in A375 cells

Oc1cc(CNC(=S)/C=C/c2ccc(O)c(O)c2Br)cc(O)c1O [Compound 39]
time of Ser-phosphorylation and degradation of IRS1 and IRS2 after exposure: 2 to 8 h

— patent US10188659B2, “IGF-1R signaling pathway inhibitors useful in the treatment of neurodegenerative diseases” (YISSUM RESEARCH DEVELOPMENT COMPANY OF THE HEBREW …, priority 2013, dated 2019)
